# Assays:
# adult smokers [1] = test: ORCA-2: biochemically-confirmed continuous smoking abstinence (primary and secondary; odds ratio, relative risk, risk difference, number needed to treat)
# Description: The trial was conducted at 17 U.S. sites. Adults aged>18 years were eligible if they currently smoked≥10 cigarettes per day, had expired air carbon monoxide (CO)>10 ppm, and intended to quit smoking. Individuals were excluded if they used any non-cigarette tobacco product (pipe tobacco, cigars, smokeless tobacco, hookah), electronic cigarettes, smoking cessation medication (bupropion, varenicline, nortriptyline, nicotine replacement product), or marijuana (smoked or vaped) in the 28 days before randomization or planned to use them during the study. Other exclusion criteria included uncontrolled hypertension, hepatic or renal impairment, past 3-month history of acute myocardial infarction, unstable angina, cerebrovascular incident, or hospitalization for congestive heart failure, diagnosis of schizophrenia or bipolar disorder, current psychosis, suicidal ideation or suicide risk (Columbia Suicide Severity Rating Scale), (1) moderate to severe depression symptoms (Hospital Anxiety and Depression Scale score 11), (2) or a positive urinary screen for illicit drugs. (Full criteria in Trial Protocol).
# At a screening visit, individuals provided written informed consent, completed a medical history, brief physical examination, electrocardiogram and laboratory tests, agreed to a quit date 5 to 7 days after study drug initiation, and recorded the number of cigarettes smoked daily for 7 days. At a second visit, participants who met inclusion and exclusion criteria were randomly assigned to study arm, received brief smoking cessation counseling, set their quit date within 5 to 7 days and started study medication the next day. A predetermined central computer-generated randomization sequence was used to assign participants (1:1:1) stratified by study site to receive placebo TID for 12 weeks (Arm A), 3 mg cytisinicline TID for 6 weeks followed by placebo TID for 6 weeks (Arm B), or 3 mg cytisinicline TID for 12 weeks (Arm C).
# Study medication was identical-appearing tablets, containing 3 mg cytisinicline or placebo taken orally TID for 12 weeks. Participants were followed for 12 additional weeks after treatment ended. All participants received 10 minutes of brief smoking cessation behavioral support provided by trained counselors at each visit from randomization through week 24.
# Assessments after randomization were conducted at in-person visits on day 2, weekly from 1 to 12 weeks, and at weeks 16, 20, and 24. Participants who discontinued study drug prematurely were encouraged to remain in the study and complete all assessment visits. Smoking status was assessed by self-report of cigarette abstinence since the last visit, measured weekly from weeks 2 through 12. Self-reported abstinence at weeks 16, 20, and 24 used the Russell criteria of not smoking more than 5 cigarettes since the last visit (3). A breath carbon monoxide (CO) level was measured at each visit. Verified abstinence required self-reported nonsmoking and a breath carbon monoxide (CO)<10 ppm. Participants not meeting these criteria or with missing data were classified as smoking.
# (§1) The study had two primary endpoints. They assessed whether cytisinicline produced greater biochemically-confirmed continuous smoking abstinence when compared to placebo during the last 4 weeks of the 6-week treatment (weeks 3 to 6 for Arms B vs. A) and the 12-week treatment (weeks 9 to 12 for Arms C vs. A). Study success was defined as either primary endpoint meeting statistical criterion. The secondary outcome measures were verified continuous cigarette abstinence to week 24 (weeks 3 to 24 for Arms B vs. A; weeks 9 to 24 for Arms C vs. A). A third secondary outcome measure compared the risk of relapse to smoking between weeks 6 and 24 among participants assigned to cytisinicline who achieved abstinence by week 6; these individuals were either switched to placebo at week 6 (Arm B) or continued cytisinicline to week 12 (Arm C). […]
# adult smokers [2] = test: ORCA-2: risk of relapse to smoking, weeks 6 to 24
# Excerpt: as §1, with “C). Other pre-specified endpoints included comparing the difference between arms in verified 7-day point-prevalence abstinence at each visit from week 2 through week 24 and assessing for evidence of effect modification for subsets defined by baseline attributes. To assess cigarette craving between groups, the Brief Questionnaire of Smoking Urges (QSU-brief) was administered at clinic visits on Day 0 and at Weeks 1 to 6 (4, 5).” for “C).”
# adult smokers [3] = test: ORCA-2: verified 7-day point-prevalence abstinence; settings: both cytisinicline arms, throughout active treatment
# Excerpt: as §1, with “C). Other pre-specified endpoints included comparing the difference between arms in verified 7-day point-prevalence abstinence at each visit from week 2 through week 24 and assessing for evidence of effect modification for subsets defined by baseline attributes. To assess cigarette craving between groups, the Brief Questionnaire of Smoking Urges (QSU-brief) was administered at clinic visits on Day 0 and at Weeks 1 to 6 (4, 5).” for “C).”
structure (smiles),measurement,setting,value
O=c1cccc2n1C[C@@H]1CNC[C@H]2C1,continuous abstinence weeks 3 to 6,adult smokers [1]; 3 mg TID 6 weeks (Arm B),25.3%
same,continuous abstinence weeks 9 to 12,adult smokers [1]; 3 mg TID 12 weeks (Arm C),32.6%
same,"OR, continuous abstinence weeks 3 to 6","adult smokers [1]; Arm B (6 weeks) vs placebo, 95% CI 3.9-16.3, p<0.0001",8.0
same,"OR, continuous abstinence weeks 3 to 24","adult smokers [1]; Arm B vs placebo, 95% CI 1.5-10.2, p=0.0016",3.7
same,"OR, continuous abstinence weeks 9 to 12","adult smokers [1]; Arm C (12 weeks) vs placebo, 95% CI 3.7-11.6, p<0.0001",6.3
same,"OR, continuous abstinence weeks 9 to 24","adult smokers [1]; Arm C vs placebo, 95% CI 2.8-11.1, p<0.0001",5.3
same,"Biochemically confirmed continuous smoking abstinence, %","adult smokers [1]; Weeks 3-6 (primary), Arm B, 6 weeks, N = 269, placebo 4.4%",25.3%
same,"Continuous smoking abstinence, risk difference","adult smokers [1]; Weeks 3-6, Arm B 6 weeks vs. placebo, 95% CI 0.16, 0.25",0.21
same,"Continuous smoking abstinence, relative risk","adult smokers [1]; Weeks 3-6, Arm B 6 weeks vs. placebo, 95% CI 3.26, 10.74",5.71
same,"Continuous smoking abstinence, NNT (number needed to treat)","adult smokers [1]; Weeks 3-6, Arm B 6 weeks vs. placebo, 95% CI 4, 7",5
same,"Continuous smoking abstinence, odds ratio","adult smokers [1]; Weeks 3-6, Arm B 6 wk vs. placebo, 95% CI 3.9 to 16.3",8.0 (3.9 to
same,"Continuous smoking abstinence, risk difference","adult smokers [1]; Weeks 3-6, Arm C 12 weeks vs. placebo, 95% CI 0.13, 0.22",0.18
same,"Continuous smoking abstinence, relative risk","adult smokers [1]; Weeks 3-6, Arm C 12 weeks vs. placebo, 95% CI 2.842, 9.50",5.02
same,"Continuous smoking abstinence, NNT (number needed to treat)","adult smokers [1]; Weeks 3-6, Arm C 12 weeks vs. placebo, 95% CI 4, 8",6
same,"Biochemically confirmed continuous smoking abstinence, %","adult smokers [1]; Weeks 3-6, Arm C, 12 weeks, N = 270, placebo 4.4%",22.2%
same,"Biochemically confirmed continuous smoking abstinence, %","adult smokers [1]; Weeks 9-12 (primary), Arm C, 12 weeks, N = 270, placebo 7.0%",32.6%
same,"Continuous smoking abstinence, risk difference","adult smokers [1]; Weeks 9-12, Arm B 6 weeks vs. placebo, 95% CI 0.10, 0.20",0.15
same,"Continuous smoking abstinence, relative risk","adult smokers [1]; Weeks 9-12, Arm B 6 weeks vs. placebo, 95% CI 1.98, 5.30",3.18
same,"Continuous smoking abstinence, NNT (number needed to treat)","adult smokers [1]; Weeks 9-12, Arm B 6 weeks vs. placebo, 95% CI 4, 11",7
same,"Biochemically confirmed continuous smoking abstinence, %","adult smokers [1]; Weeks 9-12, Arm B, 6 weeks, N = 269, placebo 7.0%",22.3%
same,"Continuous smoking abstinence, risk difference","adult smokers [1]; Weeks 9-12, Arm C 12 weeks vs. placebo, 95% CI 0.20, 0.30",0.26
same,"Continuous smoking abstinence, relative risk","adult smokers [1]; Weeks 9-12, Arm C 12 weeks vs. placebo, 95% CI 2.98, 7.58",4.65
same,"Continuous smoking abstinence, NNT (number needed to treat)","adult smokers [1]; Weeks 9-12, Arm C 12 weeks vs. placebo, 95% CI 3, 6",4
same,"Continuous smoking abstinence, odds ratio","adult smokers [1]; Weeks 9-12, Arm C 12 wk vs. placebo, 95% CI 3.7 to 11.6",6.3 (3.7 to
same,relapse-free abstinence week 6 to 24,adult smokers [2]; Arm B (switched to placebo at week 6),10.4%
same,relapse-free abstinence week 6 to 24,adult smokers [2]; Arm C (continued to week 12),13.3%
same,7-day point-prevalence abstinence vs placebo,adult smokers [3],clinically meaningful higher probabilities of biochemically-confirmed 7-day point-prevalence abstinence than placebo
